# Antibody variant affinities, Ab-14 heavy chain, assay B

Reference: Li et al. 2023, doi:10.1038/s41467-023-39022-2. File: FLAb, binding data.

Binding partner: SARS-CoV-2 spike HR2 peptide, sequence PDVDLGDISGINAS.

Ab-14 is the parent antibody, in scFv form: VH, then the linker GGGGSGGGGSGGGGS, then VL. The light chain is unchanged in all variants.
VH: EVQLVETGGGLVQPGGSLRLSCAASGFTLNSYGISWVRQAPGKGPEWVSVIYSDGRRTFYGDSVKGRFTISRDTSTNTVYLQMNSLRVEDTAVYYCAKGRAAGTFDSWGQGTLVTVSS
VL: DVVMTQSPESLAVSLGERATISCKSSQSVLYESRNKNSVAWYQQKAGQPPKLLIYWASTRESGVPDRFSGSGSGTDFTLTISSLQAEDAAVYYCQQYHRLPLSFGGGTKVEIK

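The parent was found by panning a naive human phage display library on the peptide. These sequences belong to a second round, designed from the earlier measurements on random variants of the parent. Group labels follow the data file (Ctrl: baseline library sampled from a position-specific scoring matrix, with some repeated check sequences; En: ensemble of fine-tuned language models; HC: hill climbing; Gen: genetic algorithm; Gibbs: Gibbs sampling; a sequence that several methods proposed may carry one label only). AlphaSeq pools MATa yeast showing the antibodies with MATalpha yeast showing the peptide. Pairs that bind mate more often; barcode pairs of the diploids are counted by sequencing. Scores were corrected for input abundance and mapped to Kd with protein pairs of known affinity run in the same pool. Mating was done six times.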

The parent's heavy chain CDRs are GFTLNSYGIS, VIYSDGRRTFYGDSVK, GRAAGTFDS; each variant's own CDRs replace them letter for letter.
This list holds designs with more than six substitutions.
Numbers give log10(Kd / nM), so 0 is 1 nM and 3 is 1 µM. Smaller is tighter.
A mean of the replicates is given; it leaves out those without a signal.
An entry "no signal" has no value in the source: the pair was not observed among the diploids in any replicate. This suggests poor binding but is not conclusive.
The authors' rule: three or more of the six replicates give a measured affinity, fewer mean a poor binder.
Three control strains display no target. For all heavy chain designs, 1% of the pairings with them gave a signal, with a median of 2.08 and one signal in twenty below 0.84, so weak values seen in few replicates may be background.
The parent sequence was in this pool as ten entries: three were never detected, three once, and four in most replicates, with averages from 0.34 to 2.37.
A sequence measured in both rounds can read differently, since the two assays cover different ranges.

Variant GDDLNEVGIS | VIYADGVRNQYIQSVK | GHVGGTFDY [En_Gibbs] gave no signal (0 of 6 replicates). Variant GFDLDEYGIS | VIYADGKRTAYSDSVK | GTNAGTFDV [En_Gen] gave -0.72 (6 of 6 replicates). With GFQLDEYGIS | VIYADGRRTFYTDSVK | GEVAGTFDV [En_HC] the result was -0.89 (6 of 6 replicates). Variant GFDLNEYGIS | VIYADGMRTFYADDVK | GQNAGTFDL [En_Gen] gave 0.54 (6 of 6 replicates). Variant GFDLNEYGIS | VIYADGMRQAVVQNVK | GKINVTDSV [En_Gibbs] gave 1.92 (1 of 6 replicates). Variant GFDLNEYGIS | VIYADGSRTAYADDVK | GEVAGTFDV [En_Gen] gave -0.21 (6 of 6 replicates). For GFDLEDYGIS | VIYADGRRTAYIDSVK | GEQAGTFDS [En_HC], the assay gave -0.74 (6 of 6 replicates).

Variant GFGLDEYGIS | VIYADGMRSAYANSVK | GSHAGGIVW [En_Gibbs] gave no signal (0 of 6 replicates). Variant GFNLDEYGIS | VIYADGQRTAYAKHVK | GTGGMDRGV [En_Gibbs] showed no signal (0 of 6 replicates). Variant GFNLAEYGIS | VIYADGRRVAYANAVK | GKNGENFSF [En_Gibbs] showed no signal (0 of 6 replicates). Variant GFTLDEYGIS | VIYADGTRTAYIDDVK | GQMGGNGYV [En_Gibbs] gave no signal (0 of 6 replicates). Variant GFDLNEYGIS | VIYADGMRTFYADSVK | GEVAGTFDL [En_Gen] gave 0.06 (6 of 6 replicates). Variant GFDLNEYGIS | VIYADGMRRAAANTVK | GMAYGFTLD [En_Gibbs] gave no signal (0 of 6 replicates). Variant GFDLDEYGIS | VIYADGVRKAYADDVK | GNNAGTFDV [En_Gen] showed -0.44 (6 of 6 replicates).

Variant GFDLNEYGIS | VIYADGVRTYYADSVK | GNNAGTFDV [En_Gen] gave -0.28 (6 of 6 replicates). Variant GFSLDEYGIS | VIYADGRRTFYQDDVK | GNVAGTFDL [En_HC] showed -0.47 (6 of 6 replicates). With GFDLNEYGIS | VIYADGKRTAYQDSVK | GNVAGTFDV [En_Gen] the result was -0.41 (6 of 6 replicates). Variant GFNLDEYGIS | VIYADGRRTAYADSVK | GQVAGTFLS [En_HC] showed -0.38 (6 of 6 replicates). Variant GFNLEDYGIS | VIYADGRRTAYADSVK | GEVAGTFDV [En_HC] showed -0.63 (6 of 6 replicates). With GFDLDEYGIS | VIYADGNRVFYADTVK | GLLGILYVV [En_Gibbs] the result was no signal (0 of 6 replicates). Variant GFDLNEYGIS | VIYADGRRTFYADSVK | GNLAGTFDL [En_HC] gave -0.80 (6 of 6 replicates).

For GFDLNEYGIS | VIYADGMRSAYADDVK | GNVAGTFDV [En_Gen], the assay gave -0.41 (6 of 6 replicates). For GFDLNEYGIS | VIYADGMRTFYTDDVK | GEVAGTFDL [En_HC], the assay gave -0.59 (6 of 6 replicates). Variant GFDLNEYGIS | VIYADGKRSFYADSVK | GQNAGTFDV [En_HC] gave -0.71 (6 of 6 replicates). Variant GFDLNEYGIS | VIYADGRRSYYADSVK | GQLAGTFDS [En_HC] gave -0.50 (6 of 6 replicates). Variant GFDLGEYGIS | VIYADGRRFAYSQSVK | GLNEGMLDI [En_Gibbs] gave no signal (0 of 6 replicates). With GFDLNEYGIS | VIYADGMRTFYADNVK | GEVAGTFDL [En_Gen] the result was -0.59 (6 of 6 replicates). Variant GFDLNEYGIS | VIYADGRRTFYADSVK | GNNAGTFLS [En_HC] gave 2.08 (6 of 6 replicates).

With GYDIDEYGIS | VIYADGQRTSYVQSVK | GAGDITGLV [En_Gibbs] the result was no signal (0 of 6 replicates). Variant GFALDEYGIS | VIYADGNRVFYADTVK | GLLGILYVV [En_Gibbs] showed no signal (0 of 6 replicates). For GFDLNEYGIS | VIYADGRRTFYSDSVK | GNTAGTFDE [En_HC], the assay gave 0.52 (6 of 6 replicates). For GYNLDEYGIS | VIYSDGLRTFYGDSVK | GRHAGTFRS [Ctrl], the assay gave no signal (0 of 6 replicates). With GFDLDEYGIS | VIYADGMRTAYTDSVK | GNTAGTFDQ [En_Gen] the result was -0.26 (6 of 6 replicates). Variant GMDLDEYGIS | VIYADGQRRQYAANFK | GVNIDGFDL [En_Gibbs] gave 2.23 (2 of 6 replicates). Variant GFDLDEYGIS | VIYADGRRTSYIDSVK | GETAGTFDV [En_HC] showed -0.21 (6 of 6 replicates).

Variant GYSLDDYGIS | VIYADGKRTSYAESVK | GNNGGSFMN [En_Gibbs] showed no signal (0 of 6 replicates). Variant GFDLNEYGIS | VIYADGRRTVYADSVK | GEAAGTFDV [En_HC] gave -0.91 (6 of 6 replicates). Variant GKDLLEYGIS | VIYADGIRVMYQNQVK | GNVAGFFTF [En_Gibbs] gave no signal (0 of 6 replicates).

Top 3 of the variants detected in all replicates, tightest first:

CDR-H1,CDR-H2,CDR-H3,group,"log10 Kd (nM), mean",seen in
GFDLNEYGIS,VIYADGRRTVYADSVK,GEAAGTFDV,En_HC,-0.91,6 of 6
GFQLDEYGIS,VIYADGRRTFYTDSVK,GEVAGTFDV,En_HC,-0.89,6 of 6
GFDLNEYGIS,VIYADGRRTFYADSVK,GNLAGTFDL,En_HC,-0.80,6 of 6